This assay concerns the target EGFP-mito. As to the kind of experiment: cell-based or functional assay.

On to cR10*-SS-GBP-TMP (VHH), for which the Pearson correlation coefficient of colocalization between mCherry and EGFP channels worked out at 1 PCC; the t1/2 of induced intracellular dimerization (normalized PCC against time) was 7.26 min.

These data come from patent US20230414776A1, “Small Molecule-Nanobody Conjugate Inducers of Proximity (SNACIP) and Preparation Methods and Use thereof” (Harbin Institute of Technology, priority 2022, published 2023).
